The results in this text go back to patent publication US8440666B2, “Pyridazinone compounds and P2X7 receptor inhibitors” (Nissan Chemical Industries, Ltd., priority 2007, dated 2013).

Amino acid sequences for entries named in this document (tags omitted).
UniProt Q99572, whole entry: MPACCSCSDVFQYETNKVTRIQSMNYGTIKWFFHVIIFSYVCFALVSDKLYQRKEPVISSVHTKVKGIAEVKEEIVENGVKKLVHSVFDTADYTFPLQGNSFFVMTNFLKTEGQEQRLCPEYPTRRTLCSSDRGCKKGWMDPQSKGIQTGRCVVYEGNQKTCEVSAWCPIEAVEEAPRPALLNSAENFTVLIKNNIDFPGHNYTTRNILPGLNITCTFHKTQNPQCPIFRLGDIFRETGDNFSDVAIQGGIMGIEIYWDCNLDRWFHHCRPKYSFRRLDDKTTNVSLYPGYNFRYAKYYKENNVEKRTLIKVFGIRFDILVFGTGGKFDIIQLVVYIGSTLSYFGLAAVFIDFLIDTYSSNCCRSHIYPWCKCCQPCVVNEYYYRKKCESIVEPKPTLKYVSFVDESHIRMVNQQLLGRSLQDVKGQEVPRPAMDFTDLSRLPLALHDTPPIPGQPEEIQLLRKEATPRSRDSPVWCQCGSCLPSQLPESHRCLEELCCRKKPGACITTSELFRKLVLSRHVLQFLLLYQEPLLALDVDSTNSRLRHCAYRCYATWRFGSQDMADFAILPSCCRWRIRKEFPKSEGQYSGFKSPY

In this experiment the target is Human P2X7 (hP2X7) receptor (Homo sapiens, UniProt Q99572). Kind of experiment: Dye assay: BzATP-induced Yo-Pro-1 uptake in HEK293 cells stably expressing hP2X7. The note with it: BzATP (0.1 mM)-induced Yo-Pro-1 uptake, compounds 30 min pre-treatment, 90 min incubation. An excerpt:
Human P2X7 (hP2×7) was cloned from a normal human brain total RNA library by reverse transcription (using SuperScript II (Invitrogen)) and PCR (using KOD-plus-(TOYOBO)). PCR primers were designed according to hP2X7 sequence registered in GENBANK with a putative amino acid sequence consisting of 595 amino acid residues. The PCR fragments were inserted into pcDNA3.1/myc-HisA vector (Invitrogen) and sequenced for confirmation.
HEK293 cells were transfected with hP2×7/pcDNA3.1/myc-HisA by lipofection, and 1 day later, the cells were treated with 1 mg/mL G418, and resistant cells were selected by appropriately dilution. The resistant cells were cloned by reseeding at a low density.
P2X7 receptor antagonists were screened by a dye uptake assay using HEK293 cells stably expressing hP2×7. Cells were plated on a type I collagen-coated black/clear bottom 96-well plate at 20000 cells/well and a day later, treated with varying concentrations of various test compounds for 30 minutes, then treated with a dye (Yo-Pro-1) (final concentration 2 μM) and BzATP (final concentration 0.1 mM) and incubated for 90 minutes. Then, the fluorescence (indicating the BzATP-induced Yo-Pro-1 uptake mediated by the P2X7 receptor) was measured with a microplate reader (excitation wavelength: 485 nm, emission wavelength: 535 nm). The % inhibition rates were calculated and plotted against the logarithms of the concentrations to determine IC50.

For `CC1C(Nc2cnn(CC(=O)NCC3CCN(C(=O)OC(C)(C)C)C3)c(=O)c2Br)CC2CC1C2(C)C` (stereo not shown), the IC50 (commonly the midpoint of a concentration-inhibition curve) was 0.098 µM.

On to `C[C@@H]1[C@H]2C[C@@H](C[C@H]1Nc1cnn(CC(=O)Nc3ccc(Cl)c(-n4ccnc4)c3)c(=O)c1Cl)C2(C)C`, for which the 50% inhibitory concentration (IC50) amounted to 0.027 µM.

As for `C[C@@H]1[C@H]2C[C@@H](C[C@H]1Nc1cnn(CC(=O)Nc3ccc(Cl)nc3)c(=O)c1Cl)C2(C)C`, the IC50 was found to be 0.19 µM.

On to `C[C@@H]1[C@H]2C[C@@H](C[C@H]1Nc1cnn(CC(=O)Nc3ccc(N4CCOCC4)nc3)c(=O)c1Cl)C2(C)C`, for which the IC50 was 0.055 µM.
